Among the data in EP3409278B1, “HETEROCYCLIC PROTEIN KINASE INHIBITORS” (Tolero Pharmaceuticals, Inc., priority 2011, dated 2013) are IC50 values, retold here.

By UniProt entry, the sequences of proteins in these tests, tags left out.
UniProt P11309, whole entry: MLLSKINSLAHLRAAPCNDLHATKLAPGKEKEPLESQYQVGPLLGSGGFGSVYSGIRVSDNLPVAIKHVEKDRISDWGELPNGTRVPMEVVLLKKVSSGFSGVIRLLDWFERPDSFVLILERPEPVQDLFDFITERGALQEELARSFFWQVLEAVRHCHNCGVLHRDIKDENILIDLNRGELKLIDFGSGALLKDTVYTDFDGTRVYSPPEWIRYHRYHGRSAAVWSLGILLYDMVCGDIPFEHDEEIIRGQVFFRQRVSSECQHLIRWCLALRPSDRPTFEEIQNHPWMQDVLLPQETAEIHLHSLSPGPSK

By IC50 is commonly meant the midpoint of a concentration-inhibition curve.

The assay concerns the target Pim-1 kinase (Homo sapiens, UniProt P11309). Nature of the assay: Pim-1 kinase inhibition assay (Promega Kinase-Glo). Type of assay: biochemical. On the technique in general: In Kinase-Glo more light means more ATP remaining.

SMILES strings stand for the structures. Read-outs that look alike come from different tables or passages of the source.

As for `CO[C@H]1CC[C@H](Nc2ccc3nnc(-c4cccc(C(F)(F)F)c4)n3c2)CC1` [8-106, 4-(trans-Methoxycyclohexy/)-3-(3-(trifluoromethyl)phenyl)-[1,2,4]triazolo[4,3-a]pyridin-6-amine], the concentration for half-maximal inhibition (IC50) (Table V, Kinase-Glo, 10uM ATP, read-out: IC50 on Pim1) stood at 518 nM.
As for `CS(=O)(=O)N[C@H]1CC[C@H](Nc2ccc3ncc(-c4cccc(Cl)c4)n3n2)CC1` [8-80], the IC50 (Table IV, Kinase-Glo, 10uM ATP, read-out: IC50 on Pim1) stood at 52 nM.
`CN1CCC(O)(CNc2ccc3ncc(-c4cccc(OC(F)(F)F)c4)n3n2)CC1` [8-22, 1-Methyl-4-(((3-(3-(trifluoromethoxy)phenyl)imidazo[1,2-b]pyridazin-6-yl)amino)methyl)piperidin-4-ol] yielded an IC50 of 41 nM.
On the same count and under the same terms, with `O[C@H]1CC[C@H](Nc2ccn3ncc(-c4cccc(Cl)c4)c3n2)CC1` [8-61, 4-((3-(3-Chlorophenyl)pyrazolo[1,5-a]pyrimidin-5-yl)amino)-trans-cyclohexanol] the figure was 237 nM.
